In PubChem BioAssay (NCI):
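In this assay, cells in 96-well plates receive the compound at five concentrations for 48 hours. Endpoints are linearly interpolated between the surrounding concentrations. The concentration for 50% growth inhibition is given as GI50. TGI marks complete inhibition of growth.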

Key:
Experiment in all cases: NCI-60 cell line screen, 48 h
786-0 renal = system: 786-0 renal
A498 renal = system: A498 renal
A549 NSCLC = system: A549 NSCLC
ACHN renal = system: ACHN renal
BT-549 breast = system: BT-549 breast
CAKI-1 renal = system: CAKI-1 renal
CCRF-CEM leukemia = system: CCRF-CEM leukemia
COLO 205 colon = system: COLO 205 colon
DU-145 prostate = system: DU-145 prostate
EKVX NSCLC = system: EKVX NSCLC
HCC-2998 colon = system: HCC-2998 colon
HCT-116 colon = system: HCT-116 colon
HCT-15 colon = system: HCT-15 colon
HL-60(TB) leukemia = system: HL-60(TB) leukemia
HOP-62 NSCLC = system: HOP-62 NSCLC
HOP-92 NSCLC = system: HOP-92 NSCLC
HS 578T breast = system: HS 578T breast
HT29 colon = system: HT29 colon
IGROV1 ovarian = system: IGROV1 ovarian
K-562 leukemia = system: K-562 leukemia
KM12 colon = system: KM12 colon
LOX IMVI melanoma = system: LOX IMVI melanoma
M14 melanoma = system: M14 melanoma
MALME-3M melanoma = system: MALME-3M melanoma
MCF7 breast = system: MCF7 breast
MDA-MB-231 breast = system: MDA-MB-231 breast
MDA-MB-435 = system: MDA-MB-435
MDA-N = system: MDA-N
MOLT-4 leukemia = system: MOLT-4 leukemia
NCI-H226 lung = system: NCI-H226 lung
NCI-H23 lung = system: NCI-H23 lung
NCI-H322M lung = system: NCI-H322M lung
NCI-H460 lung = system: NCI-H460 lung
NCI-H522 lung = system: NCI-H522 lung
NCI/ADR-RES ovarian = system: NCI/ADR-RES ovarian
OVCAR-3 ovarian = system: OVCAR-3 ovarian
OVCAR-4 ovarian = system: OVCAR-4 ovarian
OVCAR-5 ovarian = system: OVCAR-5 ovarian
OVCAR-8 ovarian = system: OVCAR-8 ovarian
PC-3 prostate = system: PC-3 prostate
RPMI-8226 leukemia = system: RPMI-8226 leukemia
RXF 393 renal = system: RXF 393 renal
SF-268 CNS = system: SF-268 CNS
SF-295 CNS = system: SF-295 CNS
SF-539 CNS = system: SF-539 CNS
SK-MEL-2 melanoma = system: SK-MEL-2 melanoma
SK-MEL-28 melanoma = system: SK-MEL-28 melanoma
SK-MEL-5 melanoma = system: SK-MEL-5 melanoma
SK-OV-3 ovarian = system: SK-OV-3 ovarian
SN12C renal = system: SN12C renal
SNB-19 CNS = system: SNB-19 CNS
SNB-75 CNS = system: SNB-75 CNS
SR leukemia = system: SR leukemia
SW-620 colon = system: SW-620 colon
T-47D breast = system: T-47D breast
TK-10 renal = system: TK-10 renal
U251 CNS = system: U251 CNS
UACC-257 melanoma = system: UACC-257 melanoma
UACC-62 melanoma = system: UACC-62 melanoma
UO-31 renal = system: UO-31 renal

## CC(COC(=S)OCC(C)([N+](=O)[O-])[N+](=O)[O-])([N+](=O)[O-])[N+](=O)[O-]
786-0 renal
  GI50: 39.8 µM
  TGI: > 100 µM
A498 renal
  GI50: > 100 µM
  TGI: > 100 µM
A549 NSCLC
  GI50: 41.1 µM
  TGI: > 100 µM
ACHN renal
  GI50: 33.1 µM
  TGI: > 100 µM
BT-549 breast
  GI50: 20.5 µM
  TGI: 37.7 µM
CAKI-1 renal
  GI50: 20.9 µM
  TGI: 60.1 µM
CCRF-CEM leukemia
  GI50: 25.6 µM
  TGI: 75.5 µM
COLO 205 colon
  GI50: 17.1 µM
  TGI: 31.1 µM
DU-145 prostate
  GI50: 31.3 µM
  TGI: > 100 µM
EKVX NSCLC
  GI50: 33.6 µM
  TGI: > 100 µM
HCC-2998 colon
  GI50: 36.5 µM
  TGI: > 100 µM
HCT-116 colon
  GI50: 26.5 µM
  TGI: 78.8 µM
HCT-15 colon
  GI50: 16.3 µM
  TGI: 31.2 µM
HL-60(TB) leukemia
  GI50: 24.8 µM
  TGI: 55 µM
HOP-62 NSCLC
  GI50: 44.3 µM
  TGI: > 100 µM
HOP-92 NSCLC
  GI50: 29 µM
  TGI: 93.6 µM
HS 578T breast
  GI50: 39.5 µM
  TGI: > 100 µM
HT29 colon
  GI50: 15.8 µM
  TGI: 33 µM
IGROV1 ovarian
  GI50: 33.5 µM
  TGI: > 100 µM
K-562 leukemia
  GI50: 28.3 µM
  TGI: 82.7 µM
KM12 colon
  GI50: 17.7 µM
  TGI: 32.7 µM
LOX IMVI melanoma
  GI50: 16.6 µM
  TGI: 34.4 µM
M14 melanoma
  GI50: 28.8 µM
  TGI: 86.8 µM
MALME-3M melanoma
  GI50: 31.8 µM
  TGI: 81 µM
MCF7 breast
  GI50: 22.6 µM
  TGI: 59.6 µM
MDA-MB-231 breast
  GI50: 26.7 µM
  TGI: > 100 µM
MDA-MB-435
  GI50: 30.2 µM
  TGI: 91.3 µM
MDA-N
  GI50: 33 µM
  TGI: > 100 µM
MOLT-4 leukemia
  GI50: 27.4 µM
  TGI: 65.9 µM
NCI-H226 lung
  GI50: 31.7 µM
  TGI: > 100 µM
NCI-H23 lung
  GI50: 16.8 µM
  TGI: 41.2 µM
NCI-H322M lung
  GI50: 29.8 µM
  TGI: > 100 µM
NCI-H460 lung
  GI50: 21.1 µM
  TGI: 48.4 µM
NCI-H522 lung
  GI50: 12.5 µM
  TGI: 26.9 µM
NCI/ADR-RES ovarian
  GI50: 27.6 µM
  TGI: 96.5 µM
OVCAR-3 ovarian
  GI50: 23.9 µM
  TGI: 63.3 µM
OVCAR-4 ovarian
  GI50: 34.7 µM
  TGI: > 100 µM
OVCAR-5 ovarian
  GI50: 36.8 µM
  TGI: > 100 µM
OVCAR-8 ovarian
  GI50: 18 µM
  TGI: 41.4 µM
PC-3 prostate
  GI50: 34 µM
  TGI: > 100 µM
RPMI-8226 leukemia
  GI50: 26.2 µM
  TGI: 74 µM
RXF 393 renal
  GI50: 23.1 µM
  TGI: 54 µM
SF-268 CNS
  GI50: 30.9 µM
  TGI: 88.2 µM
SF-295 CNS
  GI50: 44.7 µM
  TGI: > 100 µM
SF-539 CNS
  GI50: 33.8 µM
  TGI: > 100 µM
SK-MEL-2 melanoma
  GI50: 26.8 µM
  TGI: 81.2 µM
SK-MEL-28 melanoma
  GI50: 49 µM
  TGI: > 100 µM
SK-MEL-5 melanoma
  GI50: 18.9 µM
  TGI: 33.4 µM
SK-OV-3 ovarian
  GI50: 40.4 µM
  TGI: > 100 µM
SN12C renal
  GI50: 36.9 µM
  TGI: > 100 µM
SNB-19 CNS
  GI50: 40 µM
  TGI: > 100 µM
SNB-75 CNS
  GI50: 38.6 µM
  TGI: > 100 µM
SR leukemia
  GI50: 47.1 µM
  TGI: > 100 µM
SW-620 colon
  GI50: 30.1 µM
  TGI: > 100 µM
T-47D breast
  GI50: 30.4 µM
  TGI: 99.1 µM
TK-10 renal
  GI50: 26.1 µM
  TGI: > 100 µM
U251 CNS
  GI50: 28.8 µM
  TGI: 83.6 µM
UACC-257 melanoma
  GI50: 25.2 µM
  TGI: 76.5 µM
UACC-62 melanoma
  GI50: 34.1 µM
  TGI: > 100 µM
UO-31 renal
  GI50: 41.6 µM
  TGI: > 100 µM
